The text below walks through data of patent US20100267753A1, “METHODS OF TREATING DISORDERS ASSOCIATED WITH PROTEIN KINASE CK2 ACTIVITY” (priority 2009, published 2010).

This data set in a line: Phase I clinical study, safety and pharmacokinetics. Conditions: between the dose cohorts. The class given is in vivo, human. As to the method: Oral doses are administered twice daily for twenty-one consecutive days of a four week cycle. […] Response by RECIST is determined after every 2 cycles. Serial blood and plasma samples are collected on the first and final dosing days of Cycle 1 (i.e., Day 1 and Day 21) for pharmacokinetic analysis and for pharmacodynamic biomarker evaluations (specifically, total and phosphorylated forms of p21 and Akt).
Patients in Cohorts 1-3 were dosed twice daily (BID) with oral capsules.

“Also recorded” adds a separate entry of the source.

Take `O=C(O)c1ccc2c(c1)nc(Nc1cccc(Cl)c1)c1ccncc12` [Compound K, 5-(3-chlorophenylamino)benzo[c][2,6]naphthyridine-8-carboxylic acid]: the “linearity / dose proportionality of PK parameters” value was “general linearity; also recorded: dose proportional pharmacokinetics”.
